This is an account of results in patent US20230340011A1 (Asteroid Therapeutics, priority 2022, published 2023).

Chains of the proteins cited; added tags and fusions are not shown.
UniProt P55055, whole entry: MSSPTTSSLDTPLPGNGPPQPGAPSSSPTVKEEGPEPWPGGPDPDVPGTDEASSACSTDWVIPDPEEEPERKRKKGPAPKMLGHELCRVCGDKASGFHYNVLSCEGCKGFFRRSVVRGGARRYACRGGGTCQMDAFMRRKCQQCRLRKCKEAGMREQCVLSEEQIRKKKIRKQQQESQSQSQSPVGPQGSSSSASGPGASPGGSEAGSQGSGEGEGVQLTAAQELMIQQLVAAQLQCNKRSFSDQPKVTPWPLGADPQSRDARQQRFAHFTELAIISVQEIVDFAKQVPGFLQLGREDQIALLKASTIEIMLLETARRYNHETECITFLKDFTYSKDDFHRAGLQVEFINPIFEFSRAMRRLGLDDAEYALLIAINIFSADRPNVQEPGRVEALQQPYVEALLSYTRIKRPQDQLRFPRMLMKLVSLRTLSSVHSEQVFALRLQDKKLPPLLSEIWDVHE

pEC50, pIC50: −log10 of the molar value. Where two headings read alike, the source gives them in different places.

Test [1] has as its target T1, LXRβ (Homo sapiens (Human), UniProt P55055). Briefly: LXRβ PPI (category A-D, Tables 1 and 3). It is filed as biochemical. The note with it: Table 3, trans-AB examples.
Test [2] has as its target T2, SREBP-2 (Homo sapiens (Human), UniProt Q12772). Briefly: SREBP-2 IC50 (category A-D, Tables 1 and 3). It is filed as cell-based. The note with it: Table 3, trans-AB examples.
Test [3] addresses T2, SREBP-2. Briefly: In vitro assay SREBP-2: PathHunter U2OS SREBP-2 Nuclear Translocation Cell Line, U18666A-stimulated. The class given is cell-based.
The target of test [4] is T1, LXRβ. Briefly: In vitro assay LXRβ: PathHunter NHR CHO cells, LXRβ / Steroid Receptor Co-activator Peptide enzyme fragment complementation. The class given is cell-based. In a few lines:
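Co-activator recruitment measured by chemiluminescence after signal generation. The CHO line carries full-length human LXRβ tagged with ProLink and an SRCP–enzyme acceptor fusion in the nucleus; cells sat overnight at 37° C before testing, in charcoal-dextran filtered serum medium with 1% final vehicle.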

Setting [5] is: PathHunter NHR CHO cells, full-length human LXRβ and SRCP, chemiluminescent signal, read-out: LXRβ PPI.

Consider `C[C@H](CCC(=O)N1CCSCC1)[C@H]1CC[C@H]2[C@@H]3CC=C4C[C@@H](O)CC[C@]4(C)[C@H]3CC[C@]12C` [Example 8, (R)-4-((3S,8S,9S,10R,13R,14S,17R)-3-hydroxy-10,13-dimethyl-2,3,4,7,8,9,10,11,12,13,14,15,16,17-tetradecahydro-1H-cyclopenta[a]phenanthren-17-yl)-1-thiomorpholinopentan-1-one], for which, on LXRβ [1], the “LXRβ PPI” value was “D (>10000 nM)”. The pIC50 against SREBP-2 [2] was 6.00 to 6.60; at SREBP-2 [3] (PathHunter U2OS SREBP-2 nuclear translocation cells, U18666A 10 μM, overnight (16 hours), read-out: SREBP-2 IC50), above 6.60. The pEC50 at LXRβ [4] was 6.00 to 6.60.
Regarding `C[C@H](CCC(=O)N1CCC(O)(C#N)CC1)[C@H]1CC[C@H]2[C@@H]3CC=C4C[C@@H](O)CC[C@]4(C)[C@H]3CC[C@]12C` [Example 384, 1-[(4R)-4-[(1R,3aS,3bS,7S,9aR,9bS,11aR)-7-hydroxy-9a,11a-dimethyl-1H,2H,3H,3aH,3bH,4H,6H,7H,8H,9H,9aH,9bH,10H,11H,11aH-cyclopenta[a]phenanthren-1-yl]pentanoyl]-4-hydroxypiperidine-4-carbonitrile], the pIC50 against SREBP-2 [3] (SREBP-2 IC50) was above 6.60. The pEC50 on LXRβ [4] is above 6.60.
For “(1R,4r)-4-((R)-4-((3S,8S,9S,10R,13R,14S,17R)-3-hydroxy-10,13-dimethyl-2,3,4,7,8,9,10,11,12,13,14,15,16,17-tetradecahydro-1H-cyclopenta[a]phenanthren-17-yl)-N-methylpentanamido)-N,N-dimethylcyclohexane-1-carboxamide [Example 296]”, on SREBP-2 [3] (read-out: SREBP-2 IC50), the pIC50 is above 6.60. Further, on LXRβ [4] (setting [5]), the pEC50 is below 5.00.
With “(R)-4-((3S,8S,9S,10R,13R,14S,17R)-3-hydroxy-10,13-dimethyl-2,3,4,7,8,9,10,11,12,13,14,15,16,17-tetradecahydro-1H-cyclopenta[a]phenanthren-17-yl)-N-methoxy-N-(3,3,3-trifluoropropyl) pentalamide [Example 65]”, at LXRβ [1], the “LXRβ PPI” value is on record as “B (250 nM-1000 nM)”. For the same molecule, the pIC50 on SREBP-2 [2] and at SREBP-2 [3] (read-out: SREBP-2 IC50) was above 6.60 in each case. The pEC50 at LXRβ [4] (setting [5]) is 5.00 to 6.00.
